Measurements published in PMC9593962 (Journal of chemical information and modeling, 2021).

Chains of the proteins cited; added tags and fusions are not shown.
UniProt P23977, whole entry: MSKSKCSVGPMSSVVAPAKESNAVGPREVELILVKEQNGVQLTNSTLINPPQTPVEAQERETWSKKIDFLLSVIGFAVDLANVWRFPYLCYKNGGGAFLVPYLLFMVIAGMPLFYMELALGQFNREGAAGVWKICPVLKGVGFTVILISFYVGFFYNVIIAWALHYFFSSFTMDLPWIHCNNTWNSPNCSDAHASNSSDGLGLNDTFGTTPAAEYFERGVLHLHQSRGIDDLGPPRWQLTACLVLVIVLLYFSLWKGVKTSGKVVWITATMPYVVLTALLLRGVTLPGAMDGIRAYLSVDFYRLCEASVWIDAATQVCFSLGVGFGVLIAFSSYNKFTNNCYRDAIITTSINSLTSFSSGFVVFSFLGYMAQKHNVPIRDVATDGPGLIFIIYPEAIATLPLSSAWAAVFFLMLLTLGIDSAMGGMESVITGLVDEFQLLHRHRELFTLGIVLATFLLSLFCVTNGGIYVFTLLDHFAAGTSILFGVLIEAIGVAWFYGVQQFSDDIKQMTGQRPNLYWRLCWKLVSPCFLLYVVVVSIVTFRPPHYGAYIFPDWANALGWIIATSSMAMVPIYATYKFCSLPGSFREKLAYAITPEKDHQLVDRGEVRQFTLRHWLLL

Target: rDAT (Rattus norvegicus, UniProt P23977)
Experiment: Radioligand binding assay of rDAT with [3H]WIN35,428 in rat striatal membranes
Details: read-out: Ki at DAT; [3H]WIN35,428 as the radioligand

Work on `Fc1ccc(C(SCCNCCCc2ccccc2)c2ccc(F)cc2)cc1` [JJC8-016] yielded a Ki of 0.234 µM.
